Our source for the IC50 values is ChEMBL document CHEMBL1140140, “4-[3-(4-cyclopropanecarbonylpiperazine-1-carbonyl)-4-fluorobenzyl]-2H-phthalazin-1-one: a novel bioavailable inhibitor of poly(ADP-ribose) polymerase-1” (J Med Chem, 2008).

By UniProt entry, the sequences of proteins in these tests, tags left out.
UniProt P09874, whole entry: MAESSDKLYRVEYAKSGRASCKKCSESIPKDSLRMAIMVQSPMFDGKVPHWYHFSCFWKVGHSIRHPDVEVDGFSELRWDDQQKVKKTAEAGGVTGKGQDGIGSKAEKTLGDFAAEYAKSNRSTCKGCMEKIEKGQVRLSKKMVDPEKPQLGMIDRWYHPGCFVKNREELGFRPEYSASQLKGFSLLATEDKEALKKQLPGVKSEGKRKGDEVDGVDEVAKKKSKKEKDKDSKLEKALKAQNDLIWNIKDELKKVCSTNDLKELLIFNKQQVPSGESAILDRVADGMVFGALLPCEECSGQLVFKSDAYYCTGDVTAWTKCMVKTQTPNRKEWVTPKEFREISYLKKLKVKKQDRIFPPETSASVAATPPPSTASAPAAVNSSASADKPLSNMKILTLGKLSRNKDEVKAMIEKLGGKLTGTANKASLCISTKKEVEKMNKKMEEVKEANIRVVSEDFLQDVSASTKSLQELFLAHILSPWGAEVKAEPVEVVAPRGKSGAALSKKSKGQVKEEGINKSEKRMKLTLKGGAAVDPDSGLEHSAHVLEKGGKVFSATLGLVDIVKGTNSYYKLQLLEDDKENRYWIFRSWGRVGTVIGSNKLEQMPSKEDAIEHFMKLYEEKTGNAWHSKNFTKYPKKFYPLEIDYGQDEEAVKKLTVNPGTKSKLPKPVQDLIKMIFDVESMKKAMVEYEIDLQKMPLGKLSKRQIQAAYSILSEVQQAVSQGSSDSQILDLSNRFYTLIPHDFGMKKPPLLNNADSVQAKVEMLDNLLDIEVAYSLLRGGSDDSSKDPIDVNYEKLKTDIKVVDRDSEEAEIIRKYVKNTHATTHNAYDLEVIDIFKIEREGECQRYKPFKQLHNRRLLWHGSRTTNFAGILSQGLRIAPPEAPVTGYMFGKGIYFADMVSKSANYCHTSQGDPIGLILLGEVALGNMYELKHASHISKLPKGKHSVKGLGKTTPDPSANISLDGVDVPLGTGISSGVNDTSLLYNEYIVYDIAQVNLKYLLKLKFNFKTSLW

The structures appear in SMILES notation.

For the test, the target named is Poly [ADP-ribose] polymerase 1 (Homo sapiens, UniProt P09874).

One may read the IC50 as the concentration needed to halve the response being measured. Lower therefore signals higher potency.

In turn, `O=C(c1cc(Cc2n[nH]c(=O)c3ccccc23)ccc1F)N1CCN(CC2CC2)CC1` gave a 50% inhibitory concentration (IC50) of 4 nM.
